Values of other authors, collected in US20220370545A1, “INTEGRIN RECEPTOR ALPHA V BETA 3 AND ITS LIGAND INVOLVED IN CHRONIC ITCH” (North Carolina State University, priority 2019, published 2022).

Target: T1, TSLP (Homo sapiens, UniProt Q969D9)
T1 construct: host or cells: human atopic dermatitis patients (clinical study cited)
Conditions: in vivo; cited from earlier work

In the case of “tezepelumab: anti-TSLP monoclonal antibody”, the “effect on skin lesions of itch of human AD” value is listed as “only modest effects”.
